Legend:
human MR = human MR (Homo sapiens, UniProt P08235); assay: Mineralocorticoid Receptor Binding Assay ([3H]-aldosterone); details: read-out: MR Ki; [3H]-aldosterone binding, human MR expressed in Sf9 cells
glucocorticoid receptor = glucocorticoid receptor (Homo sapiens, UniProt P04150); assay: Glucocorticoid Receptor Binding Assay ([3H]-dexamethasone, A549 cell extract); details: read-out: GR Ki, [3H]-dexamethasone binding

The chains behind the UniProt entries cited, without tags or fusion partners.
UniProt P08235, whole entry: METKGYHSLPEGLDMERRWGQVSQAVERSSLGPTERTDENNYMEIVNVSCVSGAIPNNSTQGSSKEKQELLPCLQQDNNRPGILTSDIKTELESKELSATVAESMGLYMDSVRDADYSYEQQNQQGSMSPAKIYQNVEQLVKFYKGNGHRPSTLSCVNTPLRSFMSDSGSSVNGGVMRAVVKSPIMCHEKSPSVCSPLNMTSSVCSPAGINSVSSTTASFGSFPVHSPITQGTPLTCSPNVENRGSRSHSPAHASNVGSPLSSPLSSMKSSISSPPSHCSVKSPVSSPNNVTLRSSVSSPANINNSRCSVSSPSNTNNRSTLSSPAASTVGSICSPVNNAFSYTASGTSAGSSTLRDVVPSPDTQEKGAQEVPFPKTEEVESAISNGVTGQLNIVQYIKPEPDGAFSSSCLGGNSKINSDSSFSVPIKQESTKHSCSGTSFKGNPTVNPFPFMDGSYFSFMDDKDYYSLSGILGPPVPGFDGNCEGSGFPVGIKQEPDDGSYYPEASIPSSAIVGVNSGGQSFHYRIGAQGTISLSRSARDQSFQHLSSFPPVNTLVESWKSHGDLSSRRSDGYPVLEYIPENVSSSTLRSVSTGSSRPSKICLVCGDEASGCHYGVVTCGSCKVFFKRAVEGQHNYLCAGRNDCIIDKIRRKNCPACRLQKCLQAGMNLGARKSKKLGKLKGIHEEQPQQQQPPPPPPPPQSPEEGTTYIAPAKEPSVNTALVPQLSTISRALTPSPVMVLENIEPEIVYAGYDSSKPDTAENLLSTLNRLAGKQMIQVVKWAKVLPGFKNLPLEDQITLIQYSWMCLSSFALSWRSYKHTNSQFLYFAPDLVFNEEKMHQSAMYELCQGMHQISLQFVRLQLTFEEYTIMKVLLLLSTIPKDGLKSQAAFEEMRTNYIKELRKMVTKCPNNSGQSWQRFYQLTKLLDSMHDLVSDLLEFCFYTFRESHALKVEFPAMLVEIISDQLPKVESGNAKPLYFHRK
UniProt P04150, whole entry: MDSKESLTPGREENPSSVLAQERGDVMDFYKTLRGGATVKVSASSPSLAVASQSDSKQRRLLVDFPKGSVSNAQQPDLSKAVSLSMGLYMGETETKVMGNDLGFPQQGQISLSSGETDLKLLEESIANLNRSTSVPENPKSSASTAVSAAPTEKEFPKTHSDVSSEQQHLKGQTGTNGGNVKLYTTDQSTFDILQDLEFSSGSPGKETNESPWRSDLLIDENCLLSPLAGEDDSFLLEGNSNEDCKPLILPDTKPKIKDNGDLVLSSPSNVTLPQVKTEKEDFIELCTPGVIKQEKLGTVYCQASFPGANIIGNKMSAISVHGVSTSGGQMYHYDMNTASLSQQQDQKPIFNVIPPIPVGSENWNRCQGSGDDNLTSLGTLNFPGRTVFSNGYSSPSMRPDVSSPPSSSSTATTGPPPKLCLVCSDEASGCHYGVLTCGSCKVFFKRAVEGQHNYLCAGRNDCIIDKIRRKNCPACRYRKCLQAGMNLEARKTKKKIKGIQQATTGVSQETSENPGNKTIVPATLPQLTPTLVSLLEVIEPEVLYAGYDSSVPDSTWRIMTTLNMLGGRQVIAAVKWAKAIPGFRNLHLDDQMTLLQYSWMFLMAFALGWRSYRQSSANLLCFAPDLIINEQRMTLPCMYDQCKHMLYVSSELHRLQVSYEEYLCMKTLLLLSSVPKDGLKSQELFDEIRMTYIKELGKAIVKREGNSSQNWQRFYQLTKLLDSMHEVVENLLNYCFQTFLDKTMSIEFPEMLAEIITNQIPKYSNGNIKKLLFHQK

Q: Which results are given for `[O-][N+]1=Nc2cc(C=C3c4ccccc4CCc4ccccc43)ccc2C1`?
A: Ki (human MR): < 0.5 µM; Ki (glucocorticoid receptor): < 10 µM
